# Molecular target: human β3 (Homo sapiens, UniProt P13945)
# The chains behind the UniProt entries cited, without tags or fusion partners.
# UniProt P13945, whole entry: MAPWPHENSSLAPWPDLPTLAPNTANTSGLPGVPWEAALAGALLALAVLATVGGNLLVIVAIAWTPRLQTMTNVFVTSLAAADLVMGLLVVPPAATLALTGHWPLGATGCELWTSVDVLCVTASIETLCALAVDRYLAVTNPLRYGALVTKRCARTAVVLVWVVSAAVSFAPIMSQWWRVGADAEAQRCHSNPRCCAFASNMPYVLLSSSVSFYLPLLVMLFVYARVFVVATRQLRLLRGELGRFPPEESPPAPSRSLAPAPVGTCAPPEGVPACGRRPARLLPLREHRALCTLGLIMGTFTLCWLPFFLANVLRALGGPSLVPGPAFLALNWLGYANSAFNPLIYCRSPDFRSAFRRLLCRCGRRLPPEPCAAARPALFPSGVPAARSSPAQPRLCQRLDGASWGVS
# Experiment: Human β3-agonist activities (cAMP in transfected CHO cells)
# Description: Human β3-Agonist Activities
# Human β3-agonist activities were determined using CHO (Chinese hamster ovary) cells transfected with pcDNA3 (mfd. by Invitrogen) to which human β3 gene had been inserted. Human β3 fragment was first obtained from human adipose tissue cDNA (mfd. by Clonetech) by PCR using the primer of β3 (Krief, et al., J. Clin. Invest., vol. 91, pp. 344-349 (1993)). The human β3 fragment thus obtained was used as a probe to obtain the full length human β3 gene from a human genomic library (mfd. by Clonetech). The above cells were cultured in a Ham F-12 medium supplemented with 10% fetal bovine serum, 400 μg/mL geneticin (Gibco BRL), 100 U/mL penicillin and […] streptomycin. After placing these cells (5×10^5) into a 6-well plate and culturing them for 24 hours, they were allowed to stand on a serum-free Ham F-12 medium for 2 hours. The compound was first dissolved in DMSO, repeatedly diluted by ten times with Ham F-12 supplemented with 1 mM isobutylmethyl-xanthine and 1 mM ascorbic acid to a final concentration of from 10^−5 to 10^−12 M, and then added to the cells. After the cells were cultured for 30 minutes, the medium was removed, followed by addition of 0.5 mL of 1 N NaOH. […] The medium was stirred and then centrifuged, followed by quantitating cAMP with cAMP EIA kit (mfd. by Cayman). […]
smiles,measurement,setting,value
Cc1n[nH]c2cc(OCCNC[C@H](O)c3ccc(F)c(NS(C)(=O)=O)c3)ccc12,EC50,"CHO cells expressing human β3, cAMP, 30 minutes",24 nM
same,Intrinsic activity*,Relative activities (%) as compared with isoproterenol,56%
